Literature values in publication PMC6317804, “The integration of pharmacophore-based 3D QSAR modeling and virtual screening in safety profiling: A case study to identify antagonistic activities against adenosine receptor, A2A, using 1,897 known drugs” (PLoS ONE, 2019).
pIC50: −log10 of the molar value. Read-outs that look alike come from different tables or passages of the source.

Biological target: adenosine receptor 2A (A2A) (Homo sapiens, UniProt P29274)
Conditions: cited from earlier work

| SMILES | pIC50 (S1 Table, compounds given as SMILES, downloaded from ChEMBL) | pIC50 |
| --- | --- | --- |
| Cc1ccccc1-n1nc(C)c(-c2ccc3nccnc3c2)c1Nc1ccccc1C(=O)O | 4.30 | – |
| Cc1cc(C)n(-c2cc(NC(=O)Cc3ccc(S(C)(=O)=O)cc3)nc(-c3ccccn3)n2)n1 | – | 7.00 |
